Experimental findings from patent US20240294534A1, “IMIDAZOTRIAZINE DERIVATIVES AS IL-17 MODULATORS” (UCB BIOPHARMA SRL, priority 2021, published 2024) are described below.

Protein sequences, listed by entry. Tags and fused reporters are not part of them. Residues count along the entry.
UniProt Q16552, 24-155 limits assumed: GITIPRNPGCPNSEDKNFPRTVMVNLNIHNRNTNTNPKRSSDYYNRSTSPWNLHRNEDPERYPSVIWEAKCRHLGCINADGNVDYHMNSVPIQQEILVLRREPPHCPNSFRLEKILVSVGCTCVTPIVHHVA

The structures appear in SMILES notation.

In the experiment the target is IL-17A (Homo sapiens, UniProt Q16552). The experiment in a line: Inhibition of IL-17A induced IL-6 release from dermal fibroblast cell line (HDF cell line assay). Particulars: human dermal fibroblasts stimulated with IL-17A (50 pM) + TNF-α (25 pM); IL-6 measured by HTRF; pIC50 = -log10[IC50], IC50 molar. The source says: Inhibition of IL-17A Induced IL-6 Release from Dermal Fibroblast Cell Line
The purpose of this assay is to test the neutralising ability to IL-17 proteins, in a human primary cell system. Stimulation of normal human dermal fibroblasts (HDF) with IL-17 alone produces only a very weak signal but in combination with certain other cytokines, such as TNFα, a synergistic effect can be seen in the production of inflammatory cytokines, i.e. IL-6.
HDFs were stimulated with IL-17A (50 pM) in combination with TNF-α (25 pM). The resultant IL-6 response was then measured using a homogenous time-resolved FRET kit from Cisbio. The kit utilises two monoclonal antibodies, one labelled with Eu-Cryptate (Donor) and the second with d2 or XL665 (Acceptor). The intensity of the signal is proportional to the concentration of IL-6 present in the sample (Ratio is calculated by 665/620×104).
The ability of a compound to inhibit IL-17 induced IL-6 release from human dermal fibroblasts is measured in this assay.
HDF cells (Sigma #106-05n) were cultured in complete media (DMEM+10% FCS+2 mM L-glutamine) and maintained in a tissue culture flask using standard techniques. […] The cells were re-suspended in complete media (5 mL) counted and adjusted to a concentration of 3.125×10^4 cells/mL before being added to the 384 well assay plate (Corning #3701) at 40 μL per well. […]

In general, pIC50 refers to the IC50 on a negative log10 scale, so that one unit is a factor of ten. For the compound `O=C(N[C@H](c1cn2ncc([C@@H]3CS(=O)(=O)CCN3C(=O)C34CC(F)(C3)C4)nc2n1)[C@H]1CC[C@H](C(F)(F)F)CC1)C1(F)CC1`, the pIC50 came to 7.0. Consider `O=C(N[C@H](c1cn2ncc([C@H]3CS(=O)(=O)CCN3C(=O)C34CC(F)(C3)C4)nc2n1)[C@H]1CC[C@H](C(F)(F)F)CC1)C1(F)CC1`, for which the pIC50 is listed as 6.9.
